Results from patent US20070105777A1.

Chains of the proteins cited; added tags and fusions are not shown. Lines headed by an entry give the natural chain unless they say otherwise; changes in a name come on top.
UniProt Q08351: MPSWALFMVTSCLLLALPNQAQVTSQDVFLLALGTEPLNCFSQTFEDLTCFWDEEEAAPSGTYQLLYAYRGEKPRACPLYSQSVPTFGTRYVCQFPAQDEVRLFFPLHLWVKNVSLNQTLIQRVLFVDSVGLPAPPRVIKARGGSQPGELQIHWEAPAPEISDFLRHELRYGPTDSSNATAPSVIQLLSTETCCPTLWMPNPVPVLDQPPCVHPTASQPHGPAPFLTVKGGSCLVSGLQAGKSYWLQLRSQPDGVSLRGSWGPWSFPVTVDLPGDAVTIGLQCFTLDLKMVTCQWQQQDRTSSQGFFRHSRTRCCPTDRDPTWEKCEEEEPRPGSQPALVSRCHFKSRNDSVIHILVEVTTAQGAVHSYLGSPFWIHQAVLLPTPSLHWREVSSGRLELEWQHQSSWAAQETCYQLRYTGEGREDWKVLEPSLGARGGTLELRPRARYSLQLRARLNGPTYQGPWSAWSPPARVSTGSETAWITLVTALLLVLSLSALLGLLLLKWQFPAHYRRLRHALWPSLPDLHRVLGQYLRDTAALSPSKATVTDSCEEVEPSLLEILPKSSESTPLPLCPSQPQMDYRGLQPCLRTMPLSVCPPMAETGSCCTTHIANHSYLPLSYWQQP

Molecular target: MPL-zcytor17 polypeptide chimera: MPL extracellular and TM domain fused to the zcytor17 intracellular signaling domain (murine; human) (UniProt Q08351)
Assay: cell-based or functional assay

Substance: murine thrombopoietin (from UniProt P40226 22-356) (ligand)
- proliferation of BaF3/MPL-zcytor17 cells (Alamar Blue), fold over background (fold over background): 9 to 13
